This assay concerns the target T1, Mevalonate kinase (Streptococcus pneumoniae serotype 2 (strain D39 / NCTC 7466), UniProt A0A0H2ZQX9).
T1 sequence (A0A0H2ZQX9 whole entry): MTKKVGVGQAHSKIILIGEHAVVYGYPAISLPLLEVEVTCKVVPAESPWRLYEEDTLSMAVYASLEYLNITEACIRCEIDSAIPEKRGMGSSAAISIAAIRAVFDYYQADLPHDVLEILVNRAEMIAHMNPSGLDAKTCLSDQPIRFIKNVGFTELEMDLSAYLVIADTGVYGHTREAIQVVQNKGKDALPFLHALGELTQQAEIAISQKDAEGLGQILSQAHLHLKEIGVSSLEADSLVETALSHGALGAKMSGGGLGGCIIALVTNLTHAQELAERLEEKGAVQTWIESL

On to `O=c1c2ccccc2[se]n1-c1ccccc1` [2-Phenyl-benzo[d]isoselenazol-3-one], for which the IC50 stood at 287 nM.

For the origin of these results see BindingDB's records for doi:10.7270/Q2CF9NG2 (Srmlsc, 2007).
